The values below are quoted from earlier work in paper PMC8675232, “Reduction in C-Peptide Levels and Influence on Pharmacokinetics and Pharmacodynamics of Insulin Preparations: How to Conduct a High-Quality Euglycemic Clamp Study” (Frontiers in Pharmacology, 2021).

The conditions of data set [1]: in circulation; ref Hoekstra et al., 1982; Jones and Hattersley, 2013; cited from earlier work.
The conditions of data set [2]: ref Yaribeygi et al., 2019; cited from earlier work.

As a reminder, the half-life is the time needed for the level to fall by half in the phase considered. In the case of insulin, the half-life in data set [1] is 3 to 5 min. In data set [2], the “part extracted by the liver before reaching the peripheral circulation” value is reported as “approximately 50%”.
